The test system of this assay is HT-1080. The assay is described as follows: Antiproliferation activity against human HT1080 cells assessed as reduction in cell viability after 72 hrs by Cell Titer-Glo luminescent assay. The class given is functional, cell-based.

SMILES strings stand for the structures.

For `CC(C)(C)c1cc(C(c2ccccn2)N2CCOCC2)cc(C(C)(C)C)c1O` (stereo unspecified), the Activity entry was “Dose-dependent effect”.

Source of the values: ChEMBL document CHEMBL4387756, “Discovery of DC_H31 as potential mutant IDH1 inhibitor through NADPH-based high throughput screening” (Bioorg Med Chem, 2019).
